Data on five molecules can be found in article PMC10758494 (Frontiers in Pharmacology, 2023).

Sequences of proteins named here, by UniProt entry; tags and fusion partners are left off. A change or cut given only in a name is not applied to a line headed by its entry. Residues count along the entry.
UniProt P02710: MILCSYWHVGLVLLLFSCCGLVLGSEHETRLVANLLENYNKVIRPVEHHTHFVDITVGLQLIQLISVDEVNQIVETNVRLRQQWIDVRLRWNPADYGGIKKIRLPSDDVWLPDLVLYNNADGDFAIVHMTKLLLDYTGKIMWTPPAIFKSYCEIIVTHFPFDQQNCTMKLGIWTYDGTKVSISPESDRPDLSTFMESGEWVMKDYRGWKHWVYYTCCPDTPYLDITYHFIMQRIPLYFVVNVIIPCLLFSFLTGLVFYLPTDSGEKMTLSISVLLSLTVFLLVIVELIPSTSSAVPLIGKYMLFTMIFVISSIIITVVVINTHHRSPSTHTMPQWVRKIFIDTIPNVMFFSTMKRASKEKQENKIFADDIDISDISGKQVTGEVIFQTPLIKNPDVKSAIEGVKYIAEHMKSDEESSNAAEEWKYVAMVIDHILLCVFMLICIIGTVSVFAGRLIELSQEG
UniProt P02714: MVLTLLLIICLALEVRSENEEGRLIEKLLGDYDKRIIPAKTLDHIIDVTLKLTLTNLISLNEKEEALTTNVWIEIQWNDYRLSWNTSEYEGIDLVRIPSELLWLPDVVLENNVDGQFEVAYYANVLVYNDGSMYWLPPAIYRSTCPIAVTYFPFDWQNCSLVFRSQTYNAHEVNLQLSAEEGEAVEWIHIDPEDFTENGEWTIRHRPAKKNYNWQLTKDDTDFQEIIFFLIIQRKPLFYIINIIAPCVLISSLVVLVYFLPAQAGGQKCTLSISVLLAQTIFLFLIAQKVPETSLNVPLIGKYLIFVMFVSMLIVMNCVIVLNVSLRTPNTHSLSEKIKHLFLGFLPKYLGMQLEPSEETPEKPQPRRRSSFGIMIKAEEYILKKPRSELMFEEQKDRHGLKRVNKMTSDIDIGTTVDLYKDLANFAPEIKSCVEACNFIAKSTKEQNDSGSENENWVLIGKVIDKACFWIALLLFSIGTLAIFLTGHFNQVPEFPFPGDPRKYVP
UniProt P02718: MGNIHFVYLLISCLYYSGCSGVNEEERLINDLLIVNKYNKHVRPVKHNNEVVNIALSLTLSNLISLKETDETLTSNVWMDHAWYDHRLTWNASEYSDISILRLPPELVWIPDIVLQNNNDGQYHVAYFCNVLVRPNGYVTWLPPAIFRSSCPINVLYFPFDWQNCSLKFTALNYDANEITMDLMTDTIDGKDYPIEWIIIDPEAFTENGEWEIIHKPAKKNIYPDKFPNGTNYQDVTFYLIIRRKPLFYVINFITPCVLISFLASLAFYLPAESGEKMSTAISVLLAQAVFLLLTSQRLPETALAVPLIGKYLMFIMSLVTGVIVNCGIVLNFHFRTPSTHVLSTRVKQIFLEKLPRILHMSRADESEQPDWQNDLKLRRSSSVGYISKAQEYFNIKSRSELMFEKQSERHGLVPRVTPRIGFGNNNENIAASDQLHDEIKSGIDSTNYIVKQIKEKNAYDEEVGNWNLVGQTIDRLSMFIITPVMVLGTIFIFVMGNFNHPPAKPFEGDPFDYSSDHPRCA
UniProt P36544, 23-502 limits assumed: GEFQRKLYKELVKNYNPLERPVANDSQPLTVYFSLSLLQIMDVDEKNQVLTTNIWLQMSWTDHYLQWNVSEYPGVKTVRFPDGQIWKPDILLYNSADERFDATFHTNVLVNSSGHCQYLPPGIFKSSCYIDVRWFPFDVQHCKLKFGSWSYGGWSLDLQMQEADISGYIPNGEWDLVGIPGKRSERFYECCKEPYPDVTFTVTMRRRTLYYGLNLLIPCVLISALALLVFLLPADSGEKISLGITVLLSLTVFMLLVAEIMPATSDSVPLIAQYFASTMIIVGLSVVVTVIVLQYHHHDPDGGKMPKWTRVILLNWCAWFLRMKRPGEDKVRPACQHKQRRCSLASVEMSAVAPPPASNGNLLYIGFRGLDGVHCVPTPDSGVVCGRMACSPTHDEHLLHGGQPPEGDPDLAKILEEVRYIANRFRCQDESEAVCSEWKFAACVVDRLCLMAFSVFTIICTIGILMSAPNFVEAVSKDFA

Test [1] has as its target muscle-type T. californica nAChR (Tetronarce californica, UniProt P02710+P02714+P02718). Put plainly: Competition radioligand assay with 125I-labeled α-bungarotoxin, T. californica membranes. The following applies: for IC50: read-out: IC50 ± SEM, competition with 125I-αBgt for binding to T. californica nAChR, T. californica electric organ membranes; for Binding capacity to muscle-type nAChR (in words): competition with 125I-αBgt.

The target in test [2] is human α7 nAChR expressed in GH4C1 cells (Homo sapiens, UniProt P36544). The experiment in a line: Competition radioligand assay with 125I-labeled α-bungarotoxin, GH4C1 cells. The following applies: competition with 125I-αBgt.

Where two headings read alike, the source gives them in different places.

Regarding `NCCCNCCCCNCCCN` [Spm, spermine], the values for the IC50 in test [1] and in test [1] (listed as spermine) were 28.6 µM and 30 µM, respectively.

For the molecule `C[C@H](N)CCNCCCCNCC[C@H](C)N`, in test [1], the IC50 amounted to 31 µM.

Take `NCCCCNCCCN`: in test [1], the “Binding capacity to muscle-type nAChR (in words)” value is reported as “more than five-fold lower than that of Spm” and the IC50 is > 150 µM. For the same molecule, the “Binding capacity to α7 nAChR (in words)” value in test [2] is reported as “more than five-fold lower than that of Spm”.

Turning to `NCCCCN`, the “Binding capacity to muscle-type nAChR (in words)” value in test [1] was “almost inactive”. Besides, the “Binding capacity to α7 nAChR (in words)” value in test [2] was “almost inactive”.

For the molecule `C[C@@H](N)CCNCCCCNCC[C@@H](C)N`, the IC50 in test [1] is 30.8 µM.
